Measured values from patent EP4675276A1.

Protein sequences, listed by entry. Tags and fused reporters are not part of them. Residues count along the entry.
UniProt P69905, 2-142, chain 1 of 2: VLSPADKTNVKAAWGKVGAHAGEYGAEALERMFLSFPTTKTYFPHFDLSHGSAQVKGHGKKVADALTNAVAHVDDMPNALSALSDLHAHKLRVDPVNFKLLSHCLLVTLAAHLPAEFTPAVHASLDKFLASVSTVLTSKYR

Columns and labels:
human hemoglobin (human) [1] = target: human hemoglobin (human) (UniProt P69905); experiment: OC-Hemodia Auto III immunoassay, Hb 6.2 pmol/mL, Hpt 0.775 pmol/mL (0.125 Unit), no stool, initial value
human hemoglobin (human) [2] = target: human hemoglobin (human) (UniProt P69905); experiment: 59.4 µg/mL (921 pmol/mL) Hb + Hpt original solution at 0.500 % (vol/vol); free Hb by latex reagent No.16 + No.11
human hemoglobin (human) [3] = target: human hemoglobin (human) (UniProt P69905); experiment: OC-Hemodia Auto III immunoassay, Hb 6.2 pmol/mL, Hpt 6.2 pmol/mL (1 Unit), no stool, initial value
human hemoglobin (human) [4] = target: human hemoglobin (human) (UniProt P69905); experiment: OC-Hemodia Auto III immunoassay, Hb 9.3 pmol/mL, Hpt 9.3 pmol/mL (1 Unit), 0.5% feces, initial value
human hemoglobin (human) [5] = target: human hemoglobin (human) (UniProt P69905); experiment: 59.4 µg/mL (921 pmol/mL) Hb + Hpt original solution at 0.125 % (vol/vol); free Hb by latex reagent No.16 + No.11
human hemoglobin (human) [6] = target: human hemoglobin (human) (UniProt P69905); experiment: 59.4 µg/mL (921 pmol/mL) Hb + Hpt original solution at 0.250 % (vol/vol); free Hb by latex reagent No.16 + No.11
human hemoglobin (human) [7] = target: human hemoglobin (human) (UniProt P69905); experiment: OC-Hemodia Auto III immunoassay, Hb 6.2 pmol/mL, Hpt 12.4 pmol/mL (2 Unit), no stool, initial value
human hemoglobin (human) [8] = target: human hemoglobin (human) (UniProt P69905); experiment: 59.4 µg/mL (921 pmol/mL) Hb + Hpt original solution at 2.000 % (vol/vol); free Hb by latex reagent No.16 + No.11
human hemoglobin (human) [9] = target: human hemoglobin (human) (UniProt P69905); experiment: cell-based or functional assay
human hemoglobin (human) [10] = target: human hemoglobin (human) (UniProt P69905); experiment: OC-Hemodia Auto III immunoassay, Hb 6.2 pmol/mL, Hpt 3.1 pmol/mL (0.5 Unit), no stool, initial value
human hemoglobin (human) [11] = target: human hemoglobin (human) (UniProt P69905); experiment: OC-Hemodia Auto III immunoassay, Hb 9.3 pmol/mL, Hpt 4.65 pmol/mL (0.5 Unit), 0.5% feces, initial value
human hemoglobin (human) [12] = target: human hemoglobin (human) (UniProt P69905); experiment: OC-Hemodia Auto III immunoassay, Hb 6.2 pmol/mL, Hpt 1.55 pmol/mL (0.25 Unit), no stool, initial value
human hemoglobin (human) [13] = target: human hemoglobin (human) (UniProt P69905); experiment: OC-Hemodia Auto III immunoassay, Hb 9.3 pmol/mL, Hpt 2.325 pmol/mL (0.25 Unit), 0.5% feces, initial value
human hemoglobin (human) [14] = target: human hemoglobin (human) (UniProt P69905); experiment: extrapolated end point of the titration of 921 pmol/mL Hb (straight-line fit of Table 6A)
human hemoglobin (human) [15] = target: human hemoglobin (human) (UniProt P69905); experiment: 59.4 µg/mL (921 pmol/mL) Hb + Hpt original solution at 1.000 % (vol/vol); free Hb by latex reagent No.16 + No.11
human hemoglobin (human) [16] = target: human hemoglobin (human) (UniProt P69905); experiment: OC-Hemodia Auto III immunoassay, Hb 9.3 pmol/mL, Hpt 9.3 pmol/mL (1 Unit), 0.5% feces, initial value; remark: listed apart in the source
human hemoglobin (human) [17] = target: human hemoglobin (human) (UniProt P69905); experiment: OC-Hemodia Auto III immunoassay, Hb 6.2 pmol/mL, Hpt 6.2 pmol/mL (1 Unit), no stool, initial value; remark: listed apart in the source
human hemoglobin (human) [18] = target: human hemoglobin (human) (UniProt P69905); experiment: OC-Hemodia Auto III immunoassay, Hb 6.2 pmol/mL, Hpt 0.775 pmol/mL (0.125 Unit), no stool, initial value; remark: listed apart in the source
human hemoglobin (human) [19] = target: human hemoglobin (human) (UniProt P69905); experiment: OC-Hemodia Auto III immunoassay, Hb 9.3 pmol/mL, Hpt 2.325 pmol/mL (0.25 Unit), 0.5% feces, initial value; remark: listed apart in the source
human hemoglobin (human) [20] = target: human hemoglobin (human) (UniProt P69905); experiment: OC-Hemodia Auto III immunoassay, Hb 6.2 pmol/mL, Hpt 1.55 pmol/mL (0.25 Unit), no stool, initial value; remark: listed apart in the source
human hemoglobin (human) [21] = target: human hemoglobin (human) (UniProt P69905); experiment: OC-Hemodia Auto III immunoassay, Hb 6.2 pmol/mL, Hpt 3.1 pmol/mL (0.5 Unit), no stool, initial value; remark: listed apart in the source
human hemoglobin (human) [22] = target: human hemoglobin (human) (UniProt P69905); experiment: OC-Hemodia Auto III immunoassay, Hb 9.3 pmol/mL, Hpt 4.65 pmol/mL (0.5 Unit), 0.5% feces, initial value; remark: listed apart in the source
human hemoglobin (human) [23] = target: human hemoglobin (human) (UniProt P69905); experiment: cell-based or functional assay; remark: listed apart in the source

- Ratio to no Hpt addition (%) (human hemoglobin (human) [1]): 94%
- free-Hb concentration remaining (human hemoglobin (human) [2]): 50.8 µg/mL
- Ratio to no Hpt addition (%) (human hemoglobin (human) [3]): 72%
- Ratio to no Hpt addition (%) (human hemoglobin (human) [4]): 75%
- free-Hb concentration remaining (human hemoglobin (human) [5]): 57.1 µg/mL
- free-Hb concentration remaining (human hemoglobin (human) [6]): 55.9 µg/mL
- Ratio to no Hpt addition (%) (human hemoglobin (human) [7]): 39%
- free-Hb concentration remaining (human hemoglobin (human) [8]): 29.8 µg/mL
- Residual Hb ratio (%), 37°C 7 days, Hpt 0.775 pmol/mL (0.125 Unit), no stool (human hemoglobin (human) [9]): 45%
- Residual Hb ratio (%), 37°C 7 days, Hpt 1.55 pmol/mL (0.25 Unit), no stool (human hemoglobin (human) [9]): 50%
- Residual Hb ratio (%), 37°C 7 days, Hpt 2.325 pmol/mL (0.25 Unit), 0.5% feces (human hemoglobin (human) [9]): 23%
- Residual Hb ratio (%), 37°C 7 days, Hpt 3.1 pmol/mL (0.5 Unit), no stool (human hemoglobin (human) [9]): 57%
- Residual Hb ratio (%), 37°C 7 days, Hpt 4.65 pmol/mL (0.5 Unit), 0.5% feces (human hemoglobin (human) [9]): 44%
- Residual Hb ratio (%), 37°C 7 days, Hpt 6.2 pmol/mL (1 Unit), no stool (human hemoglobin (human) [9]): 85%
- Residual Hb ratio (%), 37°C 7 days, Hpt 9.3 pmol/mL (1 Unit), 0.5% feces (human hemoglobin (human) [9]): 97%
- Residual Hb ratio (%), 37°C 7 days, Hpt 12.4 pmol/mL (2 Unit), no stool (human hemoglobin (human) [9]): 98%
- Residual Hb ratio (%), 37°C 14 days, Hpt 0.775 pmol/mL (0.125 Unit), no stool (human hemoglobin (human) [9]): 22%
- Residual Hb ratio (%), 37°C 14 days, Hpt 1.55 pmol/mL (0.25 Unit), no stool (human hemoglobin (human) [9]): 30%
- Residual Hb ratio (%), 37°C 14 days, Hpt 2.325 pmol/mL (0.25 Unit), 0.5% feces (human hemoglobin (human) [9]): 21%
- Residual Hb ratio (%), 37°C 14 days, Hpt 3.1 pmol/mL (0.5 Unit), no stool (human hemoglobin (human) [9]): 44%
- Residual Hb ratio (%), 37°C 14 days, Hpt 4.65 pmol/mL (0.5 Unit), 0.5% feces (human hemoglobin (human) [9]): 41%
- Residual Hb ratio (%), 37°C 14 days, Hpt 6.2 pmol/mL (1 Unit), no stool (human hemoglobin (human) [9]): 87%
- Residual Hb ratio (%), 37°C 14 days, Hpt 9.3 pmol/mL (1 Unit), 0.5% feces (human hemoglobin (human) [9]): 96%
- Residual Hb ratio (%), 37°C 14 days, Hpt 12.4 pmol/mL (2 Unit), no stool (human hemoglobin (human) [9]): 100%
- residual Hb ratio, 1 Unit of Hpt, 37°C 7 days, no stool (human hemoglobin (human) [9]): > 70%
- Ratio to no Hpt addition (%) (human hemoglobin (human) [10]): 85%
- Ratio to no Hpt addition (%) (human hemoglobin (human) [11]): 88%
- Ratio to no Hpt addition (%) (human hemoglobin (human) [12]): 91%
- Ratio to no Hpt addition (%) (human hemoglobin (human) [13]): 95%
- Amount of Hpt original solution when free-Hb concentration became 0 (human hemoglobin (human) [14]): 4.01 % (vol/vol)
- free-Hb concentration remaining (human hemoglobin (human) [15]): 43.7 µg/mL
Molecule: Human Hpt (type 1-1), without enzyme treatment (from UniProt P00738 19-406)

- Ratio to no Hpt addition (%) (human hemoglobin (human) [16]): 69%
- Ratio to no Hpt addition (%) (human hemoglobin (human) [17]): 65%
- free-Hb concentration remaining (human hemoglobin (human) [2]): 57 µg/mL
- Ratio to no Hpt addition (%) (human hemoglobin (human) [18]): 97%
- free-Hb concentration remaining (human hemoglobin (human) [5]): 58.6 µg/mL
- Ratio to no Hpt addition (%) (human hemoglobin (human) [19]): 93%
- free-Hb concentration remaining (human hemoglobin (human) [6]): 57.8 µg/mL
- Ratio to no Hpt addition (%) (human hemoglobin (human) [20]): 89%
- Ratio to no Hpt addition (%) (human hemoglobin (human) [21]): 81%
- free-Hb concentration remaining (human hemoglobin (human) [8]): 52.4 µg/mL
- Ratio to no Hpt addition (%) (human hemoglobin (human) [22]): 84%
- Amount of Hpt original solution when free-Hb concentration became 0 (human hemoglobin (human) [14]): 18.6 % (vol/vol)
- Residual Hb ratio (%), 37°C 7 days, Hpt 0.775 pmol/mL (0.125 Unit), no stool (human hemoglobin (human) [23]): 40%
- Residual Hb ratio (%), 37°C 7 days, Hpt 1.55 pmol/mL (0.25 Unit), no stool (human hemoglobin (human) [23]): 41%
- Residual Hb ratio (%), 37°C 7 days, Hpt 2.325 pmol/mL (0.25 Unit), 0.5% feces (human hemoglobin (human) [23]): 19%
- Residual Hb ratio (%), 37°C 7 days, Hpt 3.1 pmol/mL (0.5 Unit), no stool (human hemoglobin (human) [23]): 49%
- Residual Hb ratio (%), 37°C 7 days, Hpt 4.65 pmol/mL (0.5 Unit), 0.5% feces (human hemoglobin (human) [23]): 34%
- Residual Hb ratio (%), 37°C 7 days, Hpt 6.2 pmol/mL (1 Unit), no stool (human hemoglobin (human) [23]): 79%
- Residual Hb ratio (%), 37°C 7 days, Hpt 9.3 pmol/mL (1 Unit), 0.5% feces (human hemoglobin (human) [23]): 75%
- Residual Hb ratio (%), 37°C 14 days, Hpt 0.775 pmol/mL (0.125 Unit), no stool (human hemoglobin (human) [23]): 22%
- Residual Hb ratio (%), 37°C 14 days, Hpt 1.55 pmol/mL (0.25 Unit), no stool (human hemoglobin (human) [23]): 32%
- Residual Hb ratio (%), 37°C 14 days, Hpt 2.325 pmol/mL (0.25 Unit), 0.5% feces (human hemoglobin (human) [23]): 16%
- Residual Hb ratio (%), 37°C 14 days, Hpt 3.1 pmol/mL (0.5 Unit), no stool (human hemoglobin (human) [23]): 48%
- Residual Hb ratio (%), 37°C 14 days, Hpt 4.65 pmol/mL (0.5 Unit), 0.5% feces (human hemoglobin (human) [23]): 34%
- Residual Hb ratio (%), 37°C 14 days, Hpt 6.2 pmol/mL (1 Unit), no stool (human hemoglobin (human) [23]): 79%
- Residual Hb ratio (%), 37°C 14 days, Hpt 9.3 pmol/mL (1 Unit), 0.5% feces (human hemoglobin (human) [23]): 78%
- residual Hb ratio, 1 Unit of Hpt, 37°C 7 days, no stool (human hemoglobin (human) [23]): > 70%
- free-Hb concentration remaining (human hemoglobin (human) [15]): 55.9 µg/mL
B1: Porcine Hpt (without enzyme treatment) (protein)
chain: AETGNEATDATDDSCPKPPEIPKGYVEHMVRYHCQTYYKLRTAGDGVYTLDSNKQWTNKVTGEKLPECEAVCGKPKNPVDQVQRIMGGSLDAKGSFPWQAKMISHHNLTSGATLINEQWLLTTAKNLRLGHKNDTKAKDIAPTLRLYVGKKQEVEIEKVIFHPDNSTVDIGLIKLKQKVPVNERVMPICLPSKDYVNVGLVGYVSGWGRNANLNFTEHLKYVMLPVADQEKCVQYYEGSTVPEKKTPKSPVGVQPILNEHTFCAGLSKYQEDTCYGDAGSAFAVHDKDDDTWYAAGILSFDKSCRTAEYGVYVRVTSILDWIQTTIADN
modifications: natural N-linked glycans on Asn 125, 151, 183, 232 (SEQ ID NO: 4)

Like-named read-outs stand apart in the source and are kept apart here. One block for each molecule: values may come before it.
